The source of these data is ChEMBL document CHEMBL4627285, “Multi-step parallel synthesis enabled optimization of benzofuran derivatives as pan-genotypic non-nucleoside inhibitors of HCV NS5B” (Bioorg Med Chem Lett, 2020).

Assay [1] can be described thus: Non-nucleoside inhibition of NS5B polymerase in HCV genotype 3a by Taqman probe based RT-PCR analysis. (In general: Real-time PCR tracks product formation cycle by cycle.)
A short description of assay [2]: Non-nucleoside inhibition of NS5B polymerase in HCV genotype 1a by Taqman probe based RT-PCR analysis.
Assay [3] in a line: Non-nucleoside inhibition of NS5B polymerase in HCV genotype 4a by Taqman probe based RT-PCR analysis.
Assay [4] can be described thus: Non-nucleoside inhibition of NS5B polymerase in HCV genotype 2b by Taqman probe based RT-PCR analysis.
The nature of assay [5]: Non-nucleoside inhibition of NS5B polymerase in HCV genotype 2a by Taqman probe based RT-PCR analysis.
Assay [6] is described as follows: Non-nucleoside inhibition of NS5B polymerase in HCV genotype 1b by Taqman probe based RT-PCR analysis.

With `CNC(=O)c1c(-c2ccc(F)cc2)oc2cc(N(C)S(C)(=O)=O)c(-c3ccc4c(n3)-c3cc5c(F)cccc5n3CO4)cc12` [MK-8876], the EC50 (usually the concentration that produces a half-maximal response) in assay [1] stood at 1.8 nM; in assay [2], 1.6 nM; in assay [3] it was 1.2 nM; in assay [4], 3.9 nM; in assay [5] it was 7.3 nM; in assay [6] it was 2.2 nM.
